In article PMC7939445, “Exploitation of dihydroorotate dehydrogenase (DHODH) and p53 activation as therapeutic targets: A case study in polypharmacology” (The Journal of Biological Chemistry, 2021):
Read-outs that look alike come from different tables or passages of the source.

The chains behind the UniProt entries cited, without tags or fusion partners.
UniProt Q02127, whole entry: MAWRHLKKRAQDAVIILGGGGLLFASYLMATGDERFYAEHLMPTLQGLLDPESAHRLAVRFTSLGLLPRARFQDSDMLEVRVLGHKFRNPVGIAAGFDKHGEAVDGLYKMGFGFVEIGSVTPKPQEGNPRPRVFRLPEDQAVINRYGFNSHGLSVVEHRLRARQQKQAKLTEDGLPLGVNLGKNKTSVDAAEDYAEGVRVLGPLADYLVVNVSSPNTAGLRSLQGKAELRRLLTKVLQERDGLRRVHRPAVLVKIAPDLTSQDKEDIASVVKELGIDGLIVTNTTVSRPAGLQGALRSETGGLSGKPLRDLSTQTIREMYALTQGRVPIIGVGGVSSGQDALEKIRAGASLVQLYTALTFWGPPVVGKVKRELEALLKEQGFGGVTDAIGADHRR

What was measured:
[1] = test system: p53, hdm2 and p21 in ARN8 cells; assay: Western blotting of p53 and p53 targets in ARN8 cells; assay type: cell-based, human; settings: 5 μM; for Treatment time at which p53 protein levels increased: blotted at 2, 4, 6 or 8 h; for Effect of OA and uridine on p53 protein and downstream signaling (hdm2, p21): 24 h, 100 μM uridine or 1 mM OA
[2] = test system: HCT116 p53 WT and p53 KO cells; assay: IncuCyte cell confluence measurements; assay type: cell-based, human; settings: HCT116 p53 WT or KO, 5 μM, confluence over 72 h
ARN8 cells = assay: SRB assay in ARN8 cells with nucleotide supplementation; settings: 72 h, 100 μM uridine, 1 mM DHO or 1 mM OA
[3] = test system: p53 transcriptional activity in ARN8 cells; assay: p53 transcriptional activation (CPRG) cell reporter assay; assay type: cell-based, human; settings: 18 h, 100 μM uridine, 1 mM DHO or 1 mM OA
recombinant human DHODH = recombinant human DHODH (Homo sapiens, UniProt Q02127); assay: DHODH enzymatic assay (kinetic, DCIP reduction); settings: for IC50: read-out: DHODH inhibition (enzyme assay), IC50, 6 nM recombinant human DHODH, average of three independent repeats
U2OS or ARN8 cells = assay: Uridine uptake assay ([3H]uridine, scintillation counting); settings: 5 μM
[4] = test system: SKNSH p53 WT and ddp53 cells; assay: SRB assay in SKNSH cells; assay type: cell-based, human; settings: SKNSH WT p53 versus ddp53, dose titration, 72 h

## CN(C)CCCCNC(=O)c1ccc(NC(=S)NC(=O)c2ccc(C(C)(C)C)cc2)cc1
[1]
  Treatment time at which p53 protein levels increased: 2 h
  Effect of OA and uridine on p53 protein and downstream signaling (hdm2, p21): largely unaffected
[2]
  Effect on cell growth in p53 KO versus p53 WT cells: effects on cell growth ablated in the p53 KO cells
ARN8 cells
  Effect of supplementation on tumor cell growth inhibition (SRB): unaffected by supplementation
[3]
  Effect of supplementation on induction of p53 transcriptional activity: unaffected
Recombinant human DHODH; biochemical assay
  Inhibition of DHODH enzyme activity (in words): incapable of inhibiting DHODH
Recombinant human DHODH
  IC50: > 20 µM
U2OS or ARN8 cells
  Inhibition of uridine uptake after 15 min: able to inhibit uridine uptake into cells

## CC(C)(C)c1ccc(C(=O)NC(=S)Nc2ccc(C(=O)NCCCCO)cc2)cc1
[1]
  Treatment time at which p53 protein levels increased: 2 h
  Effect of OA and uridine on p53 protein and downstream signaling (hdm2, p21): largely unaffected
[2]
  Effect on cell growth in p53 KO versus p53 WT cells: effects on cell growth ablated in the p53 KO cells
ARN8 cells
  Effect of supplementation on tumor cell growth inhibition (SRB): unaffected by supplementation
[3]
  Effect of supplementation on induction of p53 transcriptional activity: unaffected
Recombinant human DHODH
  IC50: 5.8 µM
Recombinant human DHODH; listed as tenovin 39OH
  IC50: 5.8 µM

## CN(C)CCCCNC(=O)c1ccc(NC(=O)NC(=O)c2ccc(C(C)(C)C)cc2)cc1
[1]
  Effect of OA and uridine on p53 protein and downstream signaling (hdm2, p21): unable to bring up levels of p53 or its downstream targets
[3]
  Effect of supplementation on induction of p53 transcriptional activity: unable to activate p53
[4]
  Effect on cell growth when ddp53 is expressed: not markedly changed
Recombinant human DHODH
  IC50: > 20 µM
U2OS or ARN8 cells
  Inhibition of uridine uptake after 15 min: able to inhibit uridine uptake into cells

## CC(C)(C)c1ccc(C(=O)NC(=O)Nc2ccc(C(=O)NCCCCO)cc2)cc1
[1]
  Effect of OA and uridine on p53 protein and downstream signaling (hdm2, p21): unable to bring up levels of p53 or its downstream targets
[3]
  Effect of supplementation on induction of p53 transcriptional activity: unable to activate p53
Recombinant human DHODH
  IC50: > 20 µM
U2OS or ARN8 cells
  Inhibition of uridine uptake after 15 min: unable to inhibit DHODH or uridine uptake
